In PMC11676734, “Novel Cyclic Peptide–Drug Conjugate P6-SN38 Toward Targeted Treatment of EGFR Overexpressed Non-Small Cell Lung Cancer” (Pharmaceutics, 2024):

Key:
H1299 (EGFR+) tumor = assay: In vivo tumor growth inhibition, H1299 (EGFR+) xenograft; design: species or system NOD/SCID (nude) mice; conditions: i.v. once a week, 3 times; Erbitux 10 mg/kg, free SN38 3 mg/kg; 18 days; N = 4
Procedure: Animal protocols were approved by the Institutional Animal Care and Use Committee at Ariel University. NOD/SCID (nude) mice were injected with H1299 in the right flank and K562 cells in the left flank (10^6 cells each), so that each mouse developed dual H1299 and K562 xenografts.
(§1) When tumors reached~50 mm^3, mice were injected via tail vein (i.v.). To investigate the peptide accumulation in the resected tumors and organs, mice were once administered with 10 mg/kg of P6-FITC [26], while for the study of the tumor growth inhibition, mice were injected once a week (a total of 3 times) with 10 mg/kg of P6-SN38, 10 mg/kg of Erbitux, or 3 mg/kg of free SN38.
(§2) The mice’s weight and tumor volumes were measured every 2 days. The tumor sizes were measured by using the hands-on digital caliper method, and the tumor volumes were calculated according to the Formula (1). Tumor volume (mm^3) = 0.5 × Tumor Length × Tumor Width^2(1)
(§3) Figure 6 In vivo effect of P6-SN38 conjugate in NSCLC model (10 mg/kg, once a week). Effect of P6-SN38, free SN38, and Erbitux on tumor volume compared to non-treated control (A) and mice weight (B). The resected tumors are shown in (C). N = 4 in each group. * p < 0.05, ** p < 0.005, *** p < 0.001, **** p < 0.0001.

[1] = Mice body weight during efficacy study; type: in vivo, NOD/SCID (nude) mice; conditions: i.v. once a week, 3 times; P6-SN38 10 mg/kg, Erbitux 10 mg/kg, free SN38 3 mg/kg; 18 days; N = 4
Procedure: as §1, §2, §3

Erbitux: EGFR-specific antibody cetuximab (Erbitux)
effect on tumor growth, in words (H1299 (EGFR+) tumor): ineffective at inhibiting tumor growth | mice weight loss, in words [1]: negligible weight loss
